The values below come from article PMC12139522.

The test has as its target actin (G-actin polymerised to F-actin) used in the low-speed co-sedimentation assays (UniProt P68135). Briefly: co-sedimentation; low-speed (13,500 x g, 30 min, 4°C) F-actin co-sedimentation; 3.0 μM G-actin incubated 1.5 h at RT with TPRN or control protein in 10 mM Tris pH 7.5, 1 mM ATP, 50 mM KCl, 2 mM MgCl2; actin in supernatant and pellet by SDS-PAGE and Coomassie.

“TRX-TPRN (mouse full-length taperin with an N-terminal thioredoxin tag) (from UniProt A2AI08 1-749) (natural protein)” showed a concentration of TRX-TPRN that saturates the binding sites of 3 μM F-actin of 100 nM and a percent of actin in the pellet of over 90%.
